Laboratory results reported in patent US20100093076A1, “SOLUBLE IL-27 RECEPTOR” (priority 2006, published 2010).

Tested on: regulatory T cells (Treg)
Assay: IL-2 treatment of mice overexpressing IL-27 (second hydrodynamic delivery experiment)
Assay type: in vivo, mouse
Settings: IL-2 i.p., four injections days 13-14
Description: A second hydrodynamic delivery experiment was conducted to determine whether IL-2 treatment of mice overexpressing IL-27 could increase expression of CD25 and FoxP3 on regulatory T cells (Treg).
C57BL/6 female mice (age approximately 8 weeks) were divided into four groups of four mice each. Mice in groups 1 and 2 received empty-vector pLIVE DNA (20.micro.g in 2 ml sterile saline), and mice in groups 3 and 4 received pLIVE-IL27 DNA (20.micro.g in 2 ml sterile saline) via tail vein injection. Mice were treated by intraperitoneal injection with 100.micro.1/mouse of either diluent (groups 1 and 3) or recombinant human IL-2 (R&D Systems, Inc.; Minneapolis, Minn.; diluted to 10.micro.g/ml in PBS) (groups 2 and 4) on days 13-14 (total of four injections at 8-hour intervals). One hour after the last injection, the mice were sacrificed. Splenectomy was performed, then serum was collected by cardiac puncture. Spleen and thymus were collected for FACS analysis. Tissues were placed in individual tubes containing sterile PBS, on ice. Serum was analyzed for levels of IL-27 by ELISA.

For “IL-2: Recombinant human IL-2 (R&D Systems, Inc.)”, the “FoxP3 or CD25 expression of splenic Treg exposed to IL-27” value was “did not increase FoxP3 or CD25 expression in response to IL-2”, the “reversal of the effects of IL-27 overexpression on Treg” value was “not able to reverse the effects of IL-27 overexpression on Treg” and the “thymic T-cells, splenic NKT cells, NK cells, B cells, macrophages, granulocytes, dendritic cells” value was “did not result in significant differences”. For the same substance, the “spleen cell numbers in response to IL-2” value (mice overexpressing IL-27) was “did not increase spleen cell numbers in response to IL-2”.
